Values of other authors as cited in patent US20120289611A1, “PECTIN COMPOUNDS, METHODS OF USING PECTIN COMPOUNDS, AND METHODS OF CONTROLLING WATER SOLUBILITY” (priority 2009, published 2012).

Conditions: in water (where stated)

Q: With `Cc1nc2n(c(=O)c1CCN1CCC(c3noc4cc(F)ccc34)CC1)CCCC2` [Risperidone] as the molecule, how does the solubility read?
A: The solubility was 2.8 µg/mL (≈ 6.82 µM).

Converted amounts (≈) assume the structure as drawn.
